Patent US20020177166A1, “Binding motif of a receptor” (MEDVET SCIENCE PTY.LTD., priority 2000, published 2002)
“Also recorded” adds a separate entry of the source.

Columns and labels:
Format in all cases: cell-based
[1] = tested on: Ser585 phosphorylation of βc in CTL-EN cells; assay: Ser585 phosphorylation of βc in CTL-EN cells expressing IL-3Ra and wtβc, immunoblot; details: 50 ng/ml IL-3, 50 μM forskolin or 100 μM dibutyryl cAMP
Protocol: CTL-EN cells expressing IL-3Ra and either wtβc or βcHSRSLP→EFAAAA were washed, starved for 4 hours in DMEM containing 0.1% FCS and then stimulated with 50 ng/ml IL-3 for the indicated times. Cells were then lysed and the βc immunoprecipitated (7×10^7 cells/IP) with the 1C1 anti-βc specific mAb. Immunoprecipitates were divided and 80% or 20% were separately run on SDS-PAGE and transferred to nitrocellulose filters. (a) 80% of the immunoprecipitates were probed with the anti-phospho-Ser585βc antibody, the filters stripped, and reprobed with the 1C1 anti-βc mAb. 20% or the immunoprecipitates were probed with the 4G10 anti-phosphotyrosine antibody. (b) Regulation of 14-3-3 association with βc following IL-3 stimulation. […]
Peptide competitions were also performed using 200 mM peptides containing the indicated sequences. b) The ability of PKA and CKII to phosphorylate Ser585 of hisβc445-881 was examined by immunoblot analysis using the anti-phospho-Ser585βc antibodies. […] Ser585 phosphorylation of βc was determined using the anti-phospho-Ser585 antibodies (top panel). […]
The regulation of βcSer585 phosphorylation in response to IL-3 stimulation was then examined in these cell lines using anti-phospho-Ser585βc antibodies. […] Tyrosine phosphorylation of βc was detected for both the wtβc and the βcHSRSLP→EFAAAA mutant (FIG. 11a). […]

[2] = tested on: Ser585 phosphorylation of βc in MO7e cells; assay: Ser585 phosphorylation and 14-3-3 recruitment in MO7e cells; details: endogenous IL-3 receptors
From the text: To address the functional significance of 14-3-3 binding to βc cell lines were generated expressing either wild type (wt) or mutant IL-3 receptors lacking the 143-3 binding site. […] The βc was immunoprecipitated and then subjected to immunoblot analysis using the anti-phospho-Ser585βc antibody. […] No association of 14-3-3 with the βcHSRSLP→EFAAAA or the βcS585G mutant controls in response to IL-3 was observed. […] The stoichiometry of Ser585 phosphorylation in response to IL-3 in vivo was also examined and compared to βc tyrosine phosphorylation. In these experiments, βc was immunoprecipitated from I^125 surface-labelled CTL-EN cells (to avoid detection of intracellular-only βc) with either anti-phosphorSer585, anti-phosphotyrosine or anti-βc antibodies from both IL-3-stimulated (+IL-3) or non-stimulated (−IL-3) cells expressing wtβc or βcS585G receptors. Immunoprecipitates were electrophoresed on a polyacrylamide gel and the amount of radiolabelled receptor immunoprecipitated was quantified using a phosphorImager. […] As we have previously reported (Stomski et al., 1996), immunoprecipitation of the βc from I^125 surface-labelled cells following IL-3 stimulation results in the co-immunoprecipitation of IL-3Rα. […]

surface-labelled βc = assay: Stoichiometry of βc phosphorylation in I125 surface-labelled CTL-EN cells; details: following IL-3 stimulation
From the text: To address the functional significance of 14-3-3 binding to βc cell lines were generated expressing either wild type (wt) or mutant IL-3 receptors lacking the 143-3 binding site. […] The βc was immunoprecipitated and then subjected to immunoblot analysis using the anti-phospho-Ser585βc antibody. […] No association of 14-3-3 with the βcHSRSLP→EFAAAA or the βcS585G mutant controls in response to IL-3 was observed. […] The stoichiometry of Ser585 phosphorylation in response to IL-3 in vivo was also examined and compared to βc tyrosine phosphorylation. In these experiments, βc was immunoprecipitated from I^125 surface-labelled CTL-EN cells (to avoid detection of intracellular-only βc) with either anti-phosphorSer585, anti-phosphotyrosine or anti-βc antibodies from both IL-3-stimulated (+IL-3) or non-stimulated (−IL-3) cells expressing wtβc or βcS585G receptors. Immunoprecipitates were electrophoresed on a polyacrylamide gel and the amount of radiolabelled receptor immunoprecipitated was quantified using a phosphorImager. […] As we have previously reported (Stomski et al., 1996), immunoprecipitation of the βc from I^125 surface-labelled cells following IL-3 stimulation results in the co-immunoprecipitation of IL-3Rα.

PI 3-kinase = PI 3-kinase lipid kinase assay on anti-phosphotyrosine immunoprecipitates of CTL-EN cells

B1: IL-3: recombinant human IL-3 produced in E. coli (protein, UniProt P08700 20-152, looked up)
Interleukin-3: APMTQTTPLKTSWVNCSNMIDEIITHLKQPPLPLLDFNNLNGEDQDILMENNLRRPNLEAFNRAVKSLQNASAIESILKNLLPCLPLATAAPTRHPIHIKDGDWNEFRRKLTFYLKTLENAQAQQTTLSLAIF
- Ser585 phosphorylation of βc after stimulation [1]: upregulated; also recorded: increased Ser585 phosphorylation
- Ser585 phosphorylation and 14-3-3 recruitment [2]: increased Ser585 phosphorylation and 14-3-3 recruitment
- surface-labelled βc phosphorylated on Ser585 (surface-labelled βc; cells expressing wtβc): approximately 87%
- βc phosphorylated on tyrosine (surface-labelled βc; cells expressing wtβc): approximately 94%
- surface-labelled βcS585G tyrosine phosphorylated (surface-labelled βc; cells expressing βcS585G): Approximately 95%
- PI 3-kinase activity (PI 3-kinase; CTL-EN wtβc, 50 ng/ml IL-3): rapid and transient activation of PI 3-kinase activity
- PI 3-kinase activity (PI 3-kinase; CTL-EN βcHSRSLP→EFAAAA, IL-3): No PI 3-kinase activity was observed
- PI 3-kinase activity (PI 3-kinase; CTL-EN βcS585G, IL-3): No PI 3-kinase activity was observed
